Results reported in patent publication US7678812B2, “Aminotetralin-derived urea modulators of vanilloid VR1 receptor” (Janssen Pharmaceutica NV, priority 2002, dated 2010).

Sequences of proteins named here, by UniProt entry; tags and fusion partners are left off.
UniProt Q8NER1, whole entry: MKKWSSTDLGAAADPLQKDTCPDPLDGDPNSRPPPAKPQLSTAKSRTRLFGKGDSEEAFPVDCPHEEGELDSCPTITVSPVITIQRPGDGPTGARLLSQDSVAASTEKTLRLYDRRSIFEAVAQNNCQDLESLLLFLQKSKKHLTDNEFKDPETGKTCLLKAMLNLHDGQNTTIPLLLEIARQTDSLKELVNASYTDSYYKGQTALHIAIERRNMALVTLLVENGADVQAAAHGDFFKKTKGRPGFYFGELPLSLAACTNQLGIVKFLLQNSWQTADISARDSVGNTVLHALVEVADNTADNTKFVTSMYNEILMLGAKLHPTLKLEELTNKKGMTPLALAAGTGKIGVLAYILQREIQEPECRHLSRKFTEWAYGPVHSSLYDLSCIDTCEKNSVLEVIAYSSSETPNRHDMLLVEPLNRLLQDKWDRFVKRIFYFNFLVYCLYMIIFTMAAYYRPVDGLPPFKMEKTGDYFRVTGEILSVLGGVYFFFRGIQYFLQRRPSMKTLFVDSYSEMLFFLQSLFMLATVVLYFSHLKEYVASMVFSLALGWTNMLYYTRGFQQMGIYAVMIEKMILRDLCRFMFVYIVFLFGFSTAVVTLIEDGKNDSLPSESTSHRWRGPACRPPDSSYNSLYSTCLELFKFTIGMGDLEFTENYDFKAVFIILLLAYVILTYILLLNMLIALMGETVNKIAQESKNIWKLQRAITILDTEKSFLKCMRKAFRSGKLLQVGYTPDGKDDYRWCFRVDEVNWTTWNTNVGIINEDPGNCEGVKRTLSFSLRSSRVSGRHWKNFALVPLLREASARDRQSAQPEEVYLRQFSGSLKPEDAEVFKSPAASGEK
UniProt O35433, whole entry: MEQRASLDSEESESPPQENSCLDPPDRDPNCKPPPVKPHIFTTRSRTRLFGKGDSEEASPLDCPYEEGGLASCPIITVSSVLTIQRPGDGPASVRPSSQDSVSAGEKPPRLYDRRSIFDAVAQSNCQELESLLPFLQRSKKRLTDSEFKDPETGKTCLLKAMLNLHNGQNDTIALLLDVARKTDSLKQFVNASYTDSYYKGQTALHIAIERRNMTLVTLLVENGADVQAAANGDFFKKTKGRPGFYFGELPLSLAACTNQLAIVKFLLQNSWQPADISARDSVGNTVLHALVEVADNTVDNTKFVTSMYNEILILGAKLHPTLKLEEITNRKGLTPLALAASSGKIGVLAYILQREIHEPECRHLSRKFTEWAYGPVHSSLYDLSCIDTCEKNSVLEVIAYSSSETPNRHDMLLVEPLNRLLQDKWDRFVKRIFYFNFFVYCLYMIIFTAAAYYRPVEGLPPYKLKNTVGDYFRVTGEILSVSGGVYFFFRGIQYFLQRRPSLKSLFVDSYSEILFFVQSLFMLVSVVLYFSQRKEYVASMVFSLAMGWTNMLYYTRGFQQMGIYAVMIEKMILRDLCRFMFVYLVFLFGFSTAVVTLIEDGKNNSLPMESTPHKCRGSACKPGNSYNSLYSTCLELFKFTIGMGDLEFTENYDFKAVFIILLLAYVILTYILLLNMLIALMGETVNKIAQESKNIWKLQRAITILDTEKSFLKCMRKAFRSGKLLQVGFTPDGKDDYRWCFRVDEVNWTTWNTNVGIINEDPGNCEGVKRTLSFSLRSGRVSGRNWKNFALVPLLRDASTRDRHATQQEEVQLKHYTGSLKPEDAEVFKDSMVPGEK

How the values were obtained:
hVR1 receptors = hVR1 receptors (Homo sapiens, UniProt Q8NER1); assay: [3H] RTX binding assay, human VR1; conditions: read-out: hVR1 Ki; inhibition of [3H] RTX binding, membranes of HEK293 cells transfected with human VR1
Rat VR1 = Rat VR1 (Rattus norvegicus, UniProt O35433); assay: [3H]-RTX binding assay using rat tissue (spinal cord); conditions: read-out: Rat VR1 Ki, rat spinal cord membranes

| Ki (hVR1 receptors) [nM] | Ki (Rat VR1) [nM] | SMILES |
| --- | --- | --- |
| 50.2 |  | O=C(Nc1cccc2c[n+]([O-])ccc12)NC1CCc2cc(F)ccc2C1Cc1ccccc1 (single isomer, unassigned) [96] |
| 50.2 |  | O=C(Nc1cccc2c[n+]([O-])ccc12)NC1CCc2cc(F)ccc2C1Cc1ccccc1 (single isomer, unassigned) [85b] |
| 25.1 |  | Cc1nccc2c(NC(=O)NC3CCc4cc(F)ccc4C3Cc3ccccc3)cccc12 (single isomer, unassigned) [102] |
| 0.719 | 131 | O=C(Nc1cccc2cnccc12)NC1CCc2cc(F)ccc2C1Cc1ccccc1 (single isomer, unassigned) [94] |
|  | 7080 | COc1ccc2c(c1)CCC(NC(=O)Nc1cccc3cnccc13)C2Cc1ccccc1 (single isomer, unassigned) [92] |
| 5.32 | 101 | Cc1nccc2c(NC(=O)NC3CCc4cc(F)ccc4C3Cc3ccccc3)cccc12 (single isomer, unassigned) [103] |
| 0.72 |  | O=C(Nc1cccc2cnccc12)NC1CCc2cc(F)ccc2C1Cc1ccccc1 (single isomer, unassigned) [38b] |
| 5.32 |  | Cc1nccc2c(NC(=O)NC3CCc4cc(F)ccc4C3Cc3ccccc3)cccc12 (single isomer, unassigned) [80a] |
|  | 53.7 | COc1ccc2c(c1)CCC(NC(=O)Nc1cccc3cnccc13)C2Cc1ccccc1 (single isomer, unassigned) [87] |
| 3.59 |  | O=C(Nc1cccc2cnccc12)NC1CCc2cc(F)ccc2C1Cc1ccccc1 (single isomer, unassigned) [38c] |
| 21.3 |  | C=CCC1c2ccc(OC)cc2CCC1NC(=O)Nc1cccc2cnccc12 (stereo not shown) |
| 3.59 | 517 | O=C(Nc1cccc2cnccc12)NC1CCc2cc(F)ccc2C1Cc1ccccc1 (single isomer, unassigned) [93] |
| 25.1 |  | Cc1nccc2c(NC(=O)NC3CCc4cc(F)ccc4C3Cc3ccccc3)cccc12 (single isomer, unassigned) [80b] |
